{"sequences": {"note": "Chains of the proteins cited; added tags and fusions are not shown. Residues count along the entry.", "UniProt P10721, 26-976 V654A": "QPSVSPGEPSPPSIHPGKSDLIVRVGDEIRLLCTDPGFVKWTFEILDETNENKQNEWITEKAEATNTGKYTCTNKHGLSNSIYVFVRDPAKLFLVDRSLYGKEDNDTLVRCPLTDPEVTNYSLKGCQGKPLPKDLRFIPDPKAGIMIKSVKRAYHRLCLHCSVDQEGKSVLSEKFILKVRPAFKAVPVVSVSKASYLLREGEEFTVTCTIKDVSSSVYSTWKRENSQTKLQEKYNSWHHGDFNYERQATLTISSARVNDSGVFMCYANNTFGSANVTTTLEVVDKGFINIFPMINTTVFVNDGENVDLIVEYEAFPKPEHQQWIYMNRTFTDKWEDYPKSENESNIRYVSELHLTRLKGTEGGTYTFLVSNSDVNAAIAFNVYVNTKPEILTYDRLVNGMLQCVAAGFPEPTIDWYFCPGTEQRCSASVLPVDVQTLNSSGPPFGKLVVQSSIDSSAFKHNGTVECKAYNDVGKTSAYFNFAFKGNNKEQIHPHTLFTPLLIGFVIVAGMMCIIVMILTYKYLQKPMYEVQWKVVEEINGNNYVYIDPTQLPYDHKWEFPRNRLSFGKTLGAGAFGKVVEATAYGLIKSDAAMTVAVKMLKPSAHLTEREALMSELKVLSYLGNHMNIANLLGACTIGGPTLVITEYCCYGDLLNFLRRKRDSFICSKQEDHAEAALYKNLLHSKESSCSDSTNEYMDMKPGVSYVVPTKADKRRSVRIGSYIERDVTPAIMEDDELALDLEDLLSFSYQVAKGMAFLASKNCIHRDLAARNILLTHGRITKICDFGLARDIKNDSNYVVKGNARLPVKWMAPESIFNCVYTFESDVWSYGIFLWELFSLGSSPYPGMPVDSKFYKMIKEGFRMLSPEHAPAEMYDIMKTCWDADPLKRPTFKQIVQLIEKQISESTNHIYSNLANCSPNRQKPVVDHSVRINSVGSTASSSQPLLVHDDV"}, "source": "paper PMC3961306", "about": "“Comparison of the Cancer Gene Targeting and Biochemical Selectivities of All Targeted Kinase Inhibitors Approved for Clinical Use” (PLoS ONE, 2014)", "key": {"[1]": {"molecular_target": "T1, panel of more than 300 wild-type and mutant kinases (313 kinase panel) (Homo sapiens, UniProt P45985)", "T1 sequence (P45985 1-399)": "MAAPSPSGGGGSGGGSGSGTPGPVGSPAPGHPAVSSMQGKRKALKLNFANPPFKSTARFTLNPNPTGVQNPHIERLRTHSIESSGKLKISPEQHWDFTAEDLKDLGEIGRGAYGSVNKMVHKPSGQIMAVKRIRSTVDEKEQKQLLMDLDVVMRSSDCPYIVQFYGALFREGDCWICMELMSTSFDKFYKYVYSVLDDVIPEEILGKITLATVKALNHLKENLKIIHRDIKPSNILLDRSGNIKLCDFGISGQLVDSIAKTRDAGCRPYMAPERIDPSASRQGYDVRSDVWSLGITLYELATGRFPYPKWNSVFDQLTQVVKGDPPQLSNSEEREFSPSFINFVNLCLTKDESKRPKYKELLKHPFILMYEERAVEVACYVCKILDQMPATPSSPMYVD", "assay": "Kinase profiling in a biochemical assay panel (mobility shift assays and ELISA), %-inhibition at 1 μM; selectivity entropy", "settings": "1 µM"}, "[2]": {"molecular_target": "panel of more than 300 wild-type and mutant kinases (313 kinase panel) (Homo sapiens, UniProt P10721, V654A)", "assay": "Kinase profiling in a biochemical assay panel (mobility shift assays and ELISA), %-inhibition at 1 μM; selectivity entropy", "settings": "kinase KIT(V654A); compound at 1 μM"}, "[3]": {"tested_on": "forty-four human cancer cell lines", "assay": "Cell proliferation assay (ATPlite, 72 hours) in the 44 cell line Oncolines panel", "settings": "A-427, read-out: cell panel IC50, A-427"}}, "data": [{"smiles": "CCCS(=O)(=O)Nc1ccc(F)c(C(=O)c2c[nH]c3ncc(-c4ccc(Cl)cc4)cc23)c1F", "note": "[vemurafenib]", "values": [{"measurement": "%-inhibition of MAP2K4", "setting": "[1]", "result": 34, "unit": "%"}]}, {"smiles": "CNC(=O)c1cc(Oc2ccc(NC(=O)Nc3ccc(Cl)c(C(F)(F)F)c3)c(F)c2)ccn1", "note": "[regorafenib]", "values": [{"measurement": "%-inhibition of KIT(V654A)", "setting": "[2]", "result": 65, "unit": "%"}]}, {"smiles": "C#Cc1cccc(Nc2ncnc3cc(OCCOC)c(OCCOC)cc23)c1", "note": "[erlotinib]", "values": [{"measurement": "IC50", "setting": "[3]", "result": "> 31.6", "unit": "µM"}]}]}
